Where “and” joins values, the source holds several entries; their conditions need not be identical. Equal values may be shown once.

In the assay the test system is Pleurotus ostreatus mycelia CGMCC No. 6232. The assay is described as follows: Shake-flask fermentation, total content of ergothioneine in the fermentation broth by HPLC. Type of assay: cell-based.

As for `N=C(N)NCCC[C@H](N)C(=O)O` [arginine], the “Content of ergothioneine in fermentation broth” value reads like this: (arginine 0.1 g/L added in fermentation medium) 126.4 ± 2.54 mg/L; (arginine 0.25 g/L added in fermentation medium) 129.8 ± 3.01 mg/L; (arginine 0.75 g/L added in fermentation medium) 131.7 ± 1.83 mg/L; (arginine 2 g/L added in fermentation medium) 134.2 mg/L and 134.2 ± 2.66 mg/L; (arginine 5 g/L added in fermentation medium) 132.9 ± 2.05 mg/L; (arginine 7 g/L added in fermentation medium) 125.5 ± 1.24 mg/L.

(Values after patent publication US10260079B2, “Method for producing ergothioneine by using soybean cake powder as nitrogen source in a seed medium” (TIANJIN INSTITUTE OF INDUSTRIAL BIOTECHNOLOGY, CHINESE …, priority 2014, dated 2019).)
